Results reported in article PMC3689823.

Target: YFP-Clu (human)
Experiment: FRET or BRET; receptor (acceptor) photobleaching FRET in co-transfected HEK293T cells, CFP donor and YFP receptor, bleached at 515 nm for 60 s

With “Aβ42-CFP (from UniProt P05067 672-713) (peptide)” the FRET efficiency was 33.7%.
